# Laboratory results from PubChem BioAssay AID1713 (Vanderbilt High Throughput Screening Facility, 2009).
# Protein sequences, listed by entry. Tags and fused reporters are not part of them.
# UniProt Q9H2X9, whole entry: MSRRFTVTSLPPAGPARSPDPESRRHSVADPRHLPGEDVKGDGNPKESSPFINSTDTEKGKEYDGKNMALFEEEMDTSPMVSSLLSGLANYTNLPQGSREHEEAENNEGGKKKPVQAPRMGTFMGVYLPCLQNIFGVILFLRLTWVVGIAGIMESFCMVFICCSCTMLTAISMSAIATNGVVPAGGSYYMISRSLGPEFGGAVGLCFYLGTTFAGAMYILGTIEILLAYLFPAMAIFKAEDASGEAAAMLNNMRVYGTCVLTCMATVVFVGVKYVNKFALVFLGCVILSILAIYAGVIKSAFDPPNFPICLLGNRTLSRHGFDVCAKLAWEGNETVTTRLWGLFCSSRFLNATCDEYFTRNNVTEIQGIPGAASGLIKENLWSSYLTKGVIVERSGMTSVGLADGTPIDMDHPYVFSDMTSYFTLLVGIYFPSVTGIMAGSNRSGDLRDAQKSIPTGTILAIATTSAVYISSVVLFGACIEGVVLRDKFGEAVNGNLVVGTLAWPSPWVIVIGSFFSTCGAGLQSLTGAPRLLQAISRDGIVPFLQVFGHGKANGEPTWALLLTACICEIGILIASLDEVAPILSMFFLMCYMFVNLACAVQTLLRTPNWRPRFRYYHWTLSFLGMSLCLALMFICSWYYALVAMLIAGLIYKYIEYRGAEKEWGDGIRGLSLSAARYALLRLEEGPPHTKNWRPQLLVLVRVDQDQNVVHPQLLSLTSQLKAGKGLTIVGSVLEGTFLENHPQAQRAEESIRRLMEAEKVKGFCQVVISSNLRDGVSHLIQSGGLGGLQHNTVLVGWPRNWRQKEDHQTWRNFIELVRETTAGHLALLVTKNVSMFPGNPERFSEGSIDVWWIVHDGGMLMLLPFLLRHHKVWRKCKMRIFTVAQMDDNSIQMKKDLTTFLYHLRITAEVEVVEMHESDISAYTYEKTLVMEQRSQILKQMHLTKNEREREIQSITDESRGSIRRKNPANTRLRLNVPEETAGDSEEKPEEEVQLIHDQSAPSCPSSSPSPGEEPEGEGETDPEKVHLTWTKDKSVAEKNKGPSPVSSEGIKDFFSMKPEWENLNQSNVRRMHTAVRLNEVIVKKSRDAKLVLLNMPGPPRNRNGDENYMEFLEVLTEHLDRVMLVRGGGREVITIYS
# Only a part is listed here, and it is no random draw. Records with an inconclusive call do not appear. Calls of active or inactive are those of the source.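 Rule for the calls: active = thallium flux slope above the same plate's solvent-only control mean plus 3 SD; inconclusive = the two replicate wells disagree; inactive = no significant difference from solvent-only control wells.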
# Target: Solute carrier family 12 member 5 (Homo sapiens) (UniProt Q9H2X9)
# Experiment: KCC2 modulators in sodium-free buffer, confirmation, cell-based, HEK293 KCC2, thallium flux, secondary assay (AID 1713)
# Details: FluoZin2 fluorescence, at 10 µM, hits give high values
# In short: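 Evaluation: F/F0 slope over 10–20 s post-thallium, baseline-normalized / Material: KCC2-expressing HEK cells / Detection: FluoZin2 fluorescence, 480/540 nm, 1 Hz / Times: 48 min dye loading / Medium: Sodium-free N-methylglucamine chloride buffer / Compound: 10 µM single dose, 0.1% DMSO / Control set: bumetanide and DMSO controls / Probe or stimulus: thallium sulfate stimulus buffer at pH 7.3 / Repeats: duplicates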
row,SMILES,normalised thallium flux (F/F0 slope)
1,CP(=O)(Nc1ccccc1)Oc1ccc(F)cc1 (stereo unspecified),inactive: 0.0109
